Source: ChEMBL document CHEMBL2034847, “Discovery of Plasmodium vivax N-myristoyltransferase inhibitors: screening, synthesis, and structural characterization of their binding mode” (J Med Chem, 2012)

Assay: Inhibition of Plasmodium vivax recombinant N-myristoyltransferase using human pp60Src92-16 amino acids) as substrate
Conditions: read-out: Ki(app)
Procedure, shortened: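 Recombinant P. vivax NMT in a 96-well fluorogenic NMT assay. Values are reported as apparent Ki, mean ± SD from duplicates.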

SMILES: CCCCc1c(C)nc2ccc(OC)cc2c1SCCC#N
- Ki: 1.73 µM
